Assay results from US11542290B2 (dated 2023).

Test system: Caco-2 cells

Which results are given for `CN1CCN(CCCN2c3ccccc3Sc3ccc(C(F)(F)F)cc32)CC1` [Trifluoperazine, 10-[3-(4-methylpiperazin-1-yl)propyl]-2-(trifluoromethyl)phenothiazine]?
Permeability across membranes (in words): moderate permeability; P-gp substrate status (in words) (Caco-2): likely not a P-gp substrate
